Laboratory results published in patent US11213517B2, “Pharmaceutical combination comprising a T-type calcium channel blocker” (IDORSIA PHARMACEUTICALS LTD, priority 2016, dated 2022).

Assay: Plasma and brain concentrations of drugs at the end of the audiogenic seizure experiment (LC-MS)
Format: in vivo, mouse
Details: oral gavage, mean ± SEM
Method: At the end of the experiment, all mice were euthanized by CO2 inhalation to assess plasma and brain concentrations of drugs and the absence of pharmacokinetic interaction. Briefly, blood was sampled from the vena cava caudalis with a syringe pre-filled with EDTA (ethylenediamine tetraacetic acid) as anticoagulant and centrifuged to yield plasma (for 10 minutes, at 4° C. and 5000 rpm (rounds per minute)). Brain was sampled and homogenized into one volume of cold phosphate buffer (pH 7.4). Following extraction with methanol, concentrations of the compound in plasma and brain were determined using liquid chromatography coupled to mass spectrometry.
Different combination efficacy experiments are performed. Three different first line antiepileptic drugs (i.e. valproic acid (VPA), levetiracetam (LEV) or lamotrigine (LTG)), referred as anti-epileptic drugs (AEDs) below) were used in combination with N-[1-(5-Cyano-pyridin-2-ylmethyl)-1H-pyrazol-3-yl]-2-[4-(1-trifluoromethyl-cyclopropyl)-phenyl]-acetamide (COMPOUND 1). Each experiment consists of four treatment groups: • 1. Vehicle (10% Polyethylene glycol400 (PEG400)/90% methylcellulose (0.5% in water; MC0.5%)), 3 h before exposure to the auditory stimulus+vehicle, 1 h before exposure to the auditory stimulus; • 2. COMPOUND 1 (in 10% PEG400/90% MC0.5%), 3 h before exposure to the auditory stimulus+vehicle, 1 h before exposure to the auditory stimulus; • 3. Vehicle, 3 h before exposure to the auditory stimulus+AED (in 10% PEG400/90% MC0.5%), 1 h before exposure to the auditory stimulus; and • 4. COMPOUND 1 (in 10% PEG400/90% MC0.5%), 3 h before exposure to the auditory stimulus+AED (in 10% PEG400/90% MC0.5%), 1 h before exposure to the auditory stimulus.

SMILES	Plasma concentration total (analyte LEV, vehicle 3 h + LEV 3 mg/kg 1 h before stimulus)	Plasma concentration total (analyte LEV, vehicle 3 h + LEV 10 mg/kg 1 h before stimulus)	Plasma concentration total (analyte LEV, vehicle 3 h + LEV 50 mg/kg 1 h before stimulus)	Plasma concentration total (analyte VPA, vehicle 3 h + VPA 100 mg/kg 1 h before stimulus)	Plasma concentration total (analyte VPA, vehicle 3 h + VPA 200 mg/kg 1 h before stimulus)
CC[C@@H](C(N)=O)N1CCCC1=O [LEV, (S)-2-(2-oxopyrrolidin-1-yl)butanamide]	1208 ± 76 ng/mL	4007 ± 199 ng/mL	24156 ± 2669 ng/mL	–	–
CCCC(CCC)C(=O)O [VPA, 2-propylpentanoic acid]	–	–	–	68144 ± 6868 ng/mL	108600 ± 9893 ng/mL
